The experiment deals with Adenosine receptor A2a (Homo sapiens, UniProt P29274). Briefly: Inhibition of 1 uM NECA-stimulated cyclic AMP levels in human platelets. The experiment is classed as functional.

Broadly, the IC50 is the concentration that gives 50% inhibition. Turning to `Nc1nc2c(cnn2CCCc2ccccc2)c2nc(-c3ccco3)nn12` [SCH-63390], half-maximal inhibition (IC50) required 0.018 µM.
